Patent publication US10322114B2 (Above and Beyond NB LLC, priority 2017, dated 2019)

Settings: dogs #1199 and #1205; after 3 weeks continuous IT infusion 0.1 mg/hour

SMILES: Nc1nc2ccc(OC(F)(F)F)cc2s1 [Riluzole, 2-Amino-6-(trifluoromethoxy)benzothiazole]
- route of elimination: largely eliminated by the kidneys in urine
